Values quoted from earlier work in patent publication US7030081B2, “Muteins of the CGRP 1-7 peptide fragment and use thereof as nicotinic neuronal receptor enhancers” (S.I.S.S.A.- Scuola Internazionale Superiore di Studi …, priority 2000, dated 2006).

System: nAChRs
Settings: Giniatullin et al.; cited from earlier work

Calcitonin Gene Related Peptide (ACDTATCVTHRLAGLLSRSGGVVKNNFVPTNVGSKAF; Calcitonin gene-related peptide 1; UniProt P06881 83-119, looked up) [CGRP, endogenously occurring whole 37 amino acid neuropeptide]
action on nAChRs reported earlier (in words): block nAChRs competitively
